Measurements: PubChem BioAssay (NCATS)
Values joined by “and” are separate entries in the source; they are usually repeats but may differ in a detail not shown here. Equal values may be shown once. The entries are a selection whose mix differs from that of the whole data set. Inconclusive results are not listed. Active and inactive are the calls of the source. Unless noted, the call rests on the fitted dose curve; in most records, active means well fitted curve in the direction sought with a large enough effect; inconclusive means small, poorly fitted or top-dose-only effect, or another doubt; inactive means no such curve, though single readings can be large; an effect the other way counts as inactive or inconclusive.

Chains of the proteins cited; added tags and fusions are not shown. Lines headed by an entry give the natural chain unless they say otherwise; changes in a name come on top.
UniProt P27695, whole entry, looked up: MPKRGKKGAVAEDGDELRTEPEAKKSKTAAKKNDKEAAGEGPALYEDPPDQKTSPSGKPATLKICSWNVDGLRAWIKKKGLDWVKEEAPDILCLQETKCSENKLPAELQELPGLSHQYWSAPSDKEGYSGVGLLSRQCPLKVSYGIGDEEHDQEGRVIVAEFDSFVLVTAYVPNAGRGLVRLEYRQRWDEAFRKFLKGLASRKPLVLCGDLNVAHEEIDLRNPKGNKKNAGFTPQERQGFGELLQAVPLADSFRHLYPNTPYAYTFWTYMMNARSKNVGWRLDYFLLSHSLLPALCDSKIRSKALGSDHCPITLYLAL
UniProt P02791: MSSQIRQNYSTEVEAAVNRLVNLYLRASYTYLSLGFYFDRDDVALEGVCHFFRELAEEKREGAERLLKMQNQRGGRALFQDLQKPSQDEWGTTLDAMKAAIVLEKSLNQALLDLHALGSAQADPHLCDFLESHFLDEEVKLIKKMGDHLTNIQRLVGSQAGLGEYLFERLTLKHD
UniProt P46063: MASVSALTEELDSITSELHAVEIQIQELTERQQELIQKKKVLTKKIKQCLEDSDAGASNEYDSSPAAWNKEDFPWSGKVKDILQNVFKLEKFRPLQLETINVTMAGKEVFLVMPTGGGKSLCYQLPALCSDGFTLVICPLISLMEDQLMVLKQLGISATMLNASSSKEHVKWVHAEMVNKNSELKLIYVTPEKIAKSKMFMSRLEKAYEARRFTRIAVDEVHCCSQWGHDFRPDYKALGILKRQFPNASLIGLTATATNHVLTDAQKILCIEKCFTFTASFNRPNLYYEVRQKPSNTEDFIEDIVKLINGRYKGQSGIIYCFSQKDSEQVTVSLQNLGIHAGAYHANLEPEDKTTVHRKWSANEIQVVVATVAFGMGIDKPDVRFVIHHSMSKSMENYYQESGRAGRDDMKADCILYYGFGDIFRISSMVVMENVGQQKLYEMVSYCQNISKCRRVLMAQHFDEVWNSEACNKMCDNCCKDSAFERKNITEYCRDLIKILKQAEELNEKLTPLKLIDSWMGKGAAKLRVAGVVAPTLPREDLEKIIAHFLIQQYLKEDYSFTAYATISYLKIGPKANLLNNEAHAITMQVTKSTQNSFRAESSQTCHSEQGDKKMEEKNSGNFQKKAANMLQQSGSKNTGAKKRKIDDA
UniProt P54132: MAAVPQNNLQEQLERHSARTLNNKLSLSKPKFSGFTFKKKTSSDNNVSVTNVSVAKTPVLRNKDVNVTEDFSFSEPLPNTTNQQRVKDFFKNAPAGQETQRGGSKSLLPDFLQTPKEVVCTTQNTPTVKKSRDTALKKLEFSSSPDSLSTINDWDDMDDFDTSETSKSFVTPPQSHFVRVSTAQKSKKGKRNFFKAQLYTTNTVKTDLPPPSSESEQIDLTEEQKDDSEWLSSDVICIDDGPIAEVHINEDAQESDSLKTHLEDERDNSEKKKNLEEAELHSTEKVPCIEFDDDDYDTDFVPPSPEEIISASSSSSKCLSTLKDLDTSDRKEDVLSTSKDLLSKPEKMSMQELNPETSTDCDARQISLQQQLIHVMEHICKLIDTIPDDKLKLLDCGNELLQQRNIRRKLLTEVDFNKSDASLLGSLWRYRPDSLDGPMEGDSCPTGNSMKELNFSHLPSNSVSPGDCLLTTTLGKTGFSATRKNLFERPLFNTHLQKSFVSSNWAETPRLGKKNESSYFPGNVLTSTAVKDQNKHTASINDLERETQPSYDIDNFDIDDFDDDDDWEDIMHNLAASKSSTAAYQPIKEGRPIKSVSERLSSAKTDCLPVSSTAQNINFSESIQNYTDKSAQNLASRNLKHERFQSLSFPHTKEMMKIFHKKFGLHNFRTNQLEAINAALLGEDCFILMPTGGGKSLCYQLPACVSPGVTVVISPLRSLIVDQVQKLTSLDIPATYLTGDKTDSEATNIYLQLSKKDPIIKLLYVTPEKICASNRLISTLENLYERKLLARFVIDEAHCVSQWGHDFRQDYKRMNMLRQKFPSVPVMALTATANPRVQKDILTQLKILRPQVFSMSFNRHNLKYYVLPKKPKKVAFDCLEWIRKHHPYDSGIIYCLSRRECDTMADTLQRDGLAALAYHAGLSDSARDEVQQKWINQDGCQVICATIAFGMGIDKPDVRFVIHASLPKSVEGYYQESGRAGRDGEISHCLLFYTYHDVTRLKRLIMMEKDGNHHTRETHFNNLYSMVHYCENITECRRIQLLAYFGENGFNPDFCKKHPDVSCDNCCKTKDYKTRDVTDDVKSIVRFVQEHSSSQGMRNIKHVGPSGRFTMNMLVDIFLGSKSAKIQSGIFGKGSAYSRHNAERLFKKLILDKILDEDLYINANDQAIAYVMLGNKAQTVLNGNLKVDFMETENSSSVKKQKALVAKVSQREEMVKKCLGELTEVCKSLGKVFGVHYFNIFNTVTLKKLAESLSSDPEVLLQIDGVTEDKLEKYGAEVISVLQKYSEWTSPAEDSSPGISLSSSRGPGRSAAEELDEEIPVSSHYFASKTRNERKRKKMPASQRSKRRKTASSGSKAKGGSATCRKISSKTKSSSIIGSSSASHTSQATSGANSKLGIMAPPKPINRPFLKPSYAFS
UniProt O75604: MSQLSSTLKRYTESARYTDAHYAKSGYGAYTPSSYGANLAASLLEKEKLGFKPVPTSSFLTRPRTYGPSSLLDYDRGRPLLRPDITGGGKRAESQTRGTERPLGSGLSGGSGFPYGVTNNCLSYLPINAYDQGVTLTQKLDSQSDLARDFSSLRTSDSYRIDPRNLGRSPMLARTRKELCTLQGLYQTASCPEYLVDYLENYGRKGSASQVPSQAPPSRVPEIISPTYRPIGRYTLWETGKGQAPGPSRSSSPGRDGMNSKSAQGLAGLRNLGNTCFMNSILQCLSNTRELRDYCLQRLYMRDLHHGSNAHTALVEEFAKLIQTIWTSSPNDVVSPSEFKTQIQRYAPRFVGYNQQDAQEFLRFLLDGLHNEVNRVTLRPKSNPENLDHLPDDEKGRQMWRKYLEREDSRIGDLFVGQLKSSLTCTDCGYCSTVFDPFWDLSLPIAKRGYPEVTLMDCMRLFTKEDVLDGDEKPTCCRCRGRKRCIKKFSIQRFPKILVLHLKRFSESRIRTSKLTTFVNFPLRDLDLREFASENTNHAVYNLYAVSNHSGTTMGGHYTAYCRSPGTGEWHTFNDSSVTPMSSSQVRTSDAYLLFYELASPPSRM
UniProt O89049, whole entry, looked up: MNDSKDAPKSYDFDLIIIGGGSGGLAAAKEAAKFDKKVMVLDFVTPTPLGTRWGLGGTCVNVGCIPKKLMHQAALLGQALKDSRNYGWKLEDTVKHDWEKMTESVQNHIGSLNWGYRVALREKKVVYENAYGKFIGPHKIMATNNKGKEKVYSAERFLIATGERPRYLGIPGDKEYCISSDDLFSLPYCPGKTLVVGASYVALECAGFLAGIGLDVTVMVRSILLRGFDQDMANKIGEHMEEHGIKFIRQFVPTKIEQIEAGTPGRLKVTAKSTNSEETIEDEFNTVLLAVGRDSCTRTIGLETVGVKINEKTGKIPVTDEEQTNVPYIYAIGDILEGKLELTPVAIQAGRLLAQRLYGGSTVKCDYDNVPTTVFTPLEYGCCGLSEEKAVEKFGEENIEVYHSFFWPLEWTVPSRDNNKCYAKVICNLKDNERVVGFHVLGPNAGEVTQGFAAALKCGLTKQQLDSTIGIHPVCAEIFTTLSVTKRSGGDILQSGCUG

How the values were obtained:
[1] = Validation of Assay for Modulators of Lamin A Splicing (AID 1459; active means well fitted curve in the direction sought with a large enough effect in the signal ratio; the % refers to the signal ratio;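 further: cells exposed to compound for two days before reading; 0% is about no effect; ratio rise marks activators and ratio drop marks inhibitors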); conditions: Lamin A splicing dual RFP/GFP fluorescence reporter; at 9.22 µM (top of the series)
How it was run: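 Readout: ratio of GFP (500-530 nm) to RFP (575-640 nm) total object intensity by 488 nm laser-scanning cytometry after 48 hrs. Cells were HeLa S3 clones carrying lamin A-EGFP minigene plus DsRed2 viability reporter; vehicle 0.5% DMSO final.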

[2] = biological target: DNA repair nuclease/redox regulator APEX1 (Homo sapiens) (UniProt P27695); experiment: qHTS Validation Assay for Inhibitors of the Human Apurinic/apyrimidinic Endonuclease 1 (APE1) (AID 1705;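 further: TAMRA fluorescence gain over two minutes as APE1 cuts a quenched THF abasic duplex; on the % scale 0 is the no-effect control and ±100 the full control effect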); conditions: purified APE1 endonuclease activity, fluorescence, titration; at 57.1 µM (top of the series)
How it was run: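 Read-out: TAMRA fluorescence (525 nm ex, 598 nm em) from cleavage of a quenched THF abasic-site duplex, 50 nM final; activity taken as intensity change between third and first of three reads 60 s apart.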

[3] = Counterscreen for APE1 Inhibitors: Fluorescent Dye Displacement Validation Assay (AID 1707); conditions: fluorescent dye displacement from DNA; at 57.1 µM (top of the series);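 further: plate controls were ThO with dsDNA and no compound for no effect and ThO without dsDNA for full effect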
How it was run: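 Compounds are scored by their ability to displace Thiazole Orange (250 nM) from a 50 nM TAMRA-tagged duplex bearing a tetrahydrofuran abasic site. Buffer is 50 mM Tris-HCl pH7.5, 50mM NaCl, 2 mM MgCl2, 0.01% Tween-20.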

[4] = biological target: Ferritin light chain (Equus caballus) (UniProt P02791); experiment: qHTS Validation Assay for Identification of Novel General Anesthetics (AID 2323); conditions: horse apoferritin, anesthetic-site fluorescent probe displacement; at 76.9 µM (top of the series); further: on the % scale 0 is the no-effect control and ±100 the full control effect
How it was run: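 10 uM horse-spleen apoferritin + 1-AMA (50% saturated, PBS); cpd pin-transferred, 10 min RT. Ex 380/Em 535 nm endpoint. Activity normalized between free 1-AMA and 1-AMA/apoferritin; 4-parameter Hill fit of concentration-response.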

[5] = biological target: ATP-dependent DNA helicase Q1 (Homo sapiens) (UniProt P46063); experiment: qHTS Validation Assay for Inhibitors of RecQ-Like Dna Helicase 1 (RECQ1) (AID 2353); conditions: recombinant RECQ1 helicase DNA unwinding assay; at 25.6 µM (top of the series);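 further: plate controls were DMSO vehicle for no effect and enzyme-free control for full effect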
How it was run: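 50 nM RECQ1T1 preincubated 15 min with compound in Tris pH 8.0 buffer with MgCl2, DTT, Tween-20 and 2.5 ug/ml poly(dI-dC); started with 200 nM TAMRA/BHQ-2 forked duplex and 2 mM ATP. Unwinding read as fluorescence (525/598 nm), two reads 2 h apart.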

[6] = biological target: RecQ-like DNA helicase BLM (Homo sapiens) (UniProt P54132); experiment: qHTS Validation Assay for Inhibitors of Bloom's syndrome helicase (BLM) (AID 2364); conditions: BLM helicase DNA unwinding, fluorescence, in vitro; at 57.1 µM (top of the series);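 further: plate controls were DMSO vehicle for no effect and enzyme-free control for full effect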
[7] = Cytometric Cell-Based qHTS for Inhibitors of the mTORC1 Signaling Pathway in MEF (Tsc2-/-, p53-/-) Cells (AID 2660); conditions: mTORC1 pathway cytometry; at 38.3 µM (top of the series);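 further: Tsc2 and p53 null MEFs carrying empty vector with compound for 24 h; percent of cells above a phospho-rpS6 to PI ratio cutoff in each well; plate controls were DMSO for no effect and rapamycin for full effect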
How it was run: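 Immunofluorescence qHTS of rpS6 Ser235/236 phosphorylation: MEFs (Tsc2-/-, p53-/-) treated 24 h, 37 C, in DMEM + 10% FBS. Alexa-488 signal normalized to PI count, referenced to rapamycin (7.5 nM) and DMSO; PI cell number recorded for viability.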

[8] = High Content Imaging Cell-Based qHTS for Inhibitors of the mTORC1 Signaling Pathway in MEF (Tsc2-/-, p53-/-) Cells (AID 2666); conditions: at 38.3 µM (top of the series);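 further: percent of cells scored positive for phospho-rpS6 Ser235/236 immunostaining by imaging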
How it was run: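 Cells were plated, dosed with compound after 24 hrs, and incubated another 24 hrs at 37 degree Celsius. Fixed cells were immunostained for phospho-rpS6 Ser235/236 and counterstained, and the normalized signal was scored as % active cells against rapamycin and DMSO controls.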

[9] = High Content Imaging Cell-Based qHTS for Inhibitors of the mTORC1 Signaling Pathway in MEF Cells (AID 2667); conditions: at 38.3 µM (top of the series);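 further: Tsc2-/- p53-/- MEFs stably re-expressing wild-type Tsc2 exposed 24 h; plate controls were DMSO wells for no effect and rapamycin control wells for full effect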
How it was run: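 Immunofluorescence for rpS6 phosphorylation in MEFs of Tsc2-/-, p53-/- background rescued with WT Tsc2. Compound exposure lasted 24 hrs. Inhibition was scored against rapamycin-treated control wells.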

[10] = Cytometry Cell-Based qHTS for Inhibitors of the mTORC1 Signaling Pathway in MEF cells (AID 2668); conditions: mTORC1 pathway readout; at 38.3 µM (top of the series);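 further: Tsc2-/- p53-/- mouse embryonic fibroblasts stably re-expressing wild-type Tsc2; percent cells positive for phospho-rpS6 Ser235/236 relative to propidium iodide stain; plate controls were DMSO wells for no effect and 7.5 nM rapamycin control wells for full effect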
How it was run: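 Read-out: phospho-rpS6 Ser235/236 immunofluorescence normalized to propidium iodide intensity, scored as % active cells against a rapamycin (7.5 nM) threshold. Cells: Tsc2-/-, p53-/- MEFs stably expressing WT Tsc2, compound-treated 24 hrs at 37 degree Celsius.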

[11] = Validation screen for small molecules that induce DNA re-replication in MCF 10A normal breast cells (AID 463097); conditions: MCF 10A cells, DNA re-replication phenotype imaging; at 46.1 µM (top of the series); further: 0% is about no effect; nearly all actives have a fitted effect of over 60% in size
How it was run: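 250 MCF 10A cells/well; compound pin-transferred; 48 hr, 37 C, 5% CO2; Hoechst 40 min; imaged 405/500-530 nm. Hits = more high-intensity nuclei.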

[12] = biological target: Ubiquitin carboxyl-terminal hydrolase 2 (Homo sapiens) (UniProt O75604); experiment: qHTS Validation Assay for Inhibitors of Ubiquitin-specific Protease USP2a Using CHOP2 as the Reporter (AID 463106); conditions: USP2a cleavage of CHOP2 reporter, enzymatic; at 38.3 µM (top of the series);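 further: plate controls were DMSO for no effect and full inhibition by NEM for full effect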
How it was run: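 10nM USP2 core + cpd, 30min RT; add 25nM Ub-CHOP2/25nM substrate; 60min RT; FI 485/531nm. Buffer Tris pH 8.0, CaCl2, BME, CHAPS. Norm. to NEM = 100% inhibition; time-zero read flags fluorescent artifacts.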

[13] = qHTS Validation Assay to Find Inhibitors of Chronic Active B-Cell Receptor Signaling (AID 485345; active means well fitted curve in the direction sought with a large enough effect in the main read-out, with a control signal flat, not every such curve was filed as active;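 further: 0% = untreated basal cells and 100% = 10 µM MG-132 proteasome inhibitor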); conditions: ABC-DLBCL cells, chronic BCR signaling reporter, CBG luciferase; at 46.1 µM (top of the series)
How it was run: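 Read-out: ratio of filter-corrected green (IkappaBalpha fusion) to red (native) luciferase signal in doxycycline-induced TMD8 cells after 4 h at 37C. Titration spanned 46 uM–3 nM; Data were normalised to basal cells and 10 uM MG-132 wells.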

[14] = biological target: Beta-2 adrenergic receptor (Homo sapiens) (UniProt P07550); experiment: qHTS validation assay of beta-arrestin-biased ligands of beta2-adrenergic receptor (AID 485366); conditions: cell-based beta-arrestin recruitment to ADRB2, qHTS; at 46.1 µM (top of the series); further: 0% is about no effect
How it was run: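 Arrestin-recruitment (Tango) reporter: ligand-bound beta2-AR recruits beta-arrestin, releasing tTA, which upregulates luciferase. Titrations of up to 46 microM incubated 18 hr at 37 degrees C before luminescent readout.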

[15] = biological target: Thioredoxin reductase 1, cytoplasmic (Rattus norvegicus) (UniProt O89049); experiment: qHTS Assay for Substrates of Mammalian Selenoprotein Thioredoxin Reductase 1 (TrxR1) (AID 488772); conditions: purified TrxR1, NADPH consumption substrate assay; at 57.1 µM (top of the series);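 further: NADPH fluorescence in the first read after selenite addition and not the 8 min delta; 0% is about no effect; a drop in NADPH fluorescence below the no-compound background marks a TrxR1 substrate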
How it was run: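 Quantitative HTS in Tris-HCl buffer at pH 7.5 with EDTA and Tween-20, using rat TrxR1, 400 uM NADPH and 400 uM selenite (final). A fall in initial NADPH fluorescence relative to background marked substrate behaviour.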

CN(C(=O)Cc1ccc(Cl)c(Cl)c1)[C@H]1CCCC[C@@H]1N1CCCC1
inactive: ratio change, both ways [1] -9.73% and -4.51% | activity change, negative = inhibition [2] -5.66% and -2.53% | activity change, negative = inhibition [3] -1.57% and 1.88% | activity change, negative = inhibition [4] -16.9% | activity change, negative = inhibition [5] -3.94% and -5.37% | activity change, negative = inhibition [6] -8.8% and -5.86% | activity change, negative = inhibition [7] 9.52% and -0.794% | outcome [8] | activity change, negative = inhibition [9] -100% | activity change, negative = inhibition [10] -11.5% | re-replication induction [11] 1.08% and -2.19% | activity, negative = inhibition [12] 1.63% and 2.09% | activity change [13] -4.93% and -11.8% | activation [14] 0.981% and 0.0527% | activity change, negative = NADPH consumption [15] -2.21% and -2.95%
